# Laboratory results reported in US20230144385A1, “ETHANOLAMINE FORMULATION FOR TREATING EPITHELIAL OVARIAN CARCINOMA” (METANOI THERAPEUTICS, INC., priority 2020, published 2023).
# Assays:
# OVCAR3 = assay: MTT dose-response, ovarian cancer cell line; format: cell-based; conditions: OVCAR3 versus the other cell lines
# Description: PhosE was ineffective in inhibiting proliferation and colony formation of these cell lines up to 100 mg/ml (data not shown).
# [1] = Bioavailability and PK of orally-delivered Etn and PhosE; format: in vivo; conditions: oral, compared to PhosE
compound,measurement,setting,value
"NCCO [Etn, Monoethanolamine]",susceptibility of cell line relative to other lines tested,OVCAR3,most susceptible
same,PK properties,[1],better
